The text below walks through data of patent US8778966B2, “Quinolinone derivatives as PARP and tank inhibitors” (Janssen Pharmaceutica, NV, priority 2007, dated 2014).

Chains of the proteins cited; added tags and fusions are not shown.
UniProt Q9H2K2, whole entry: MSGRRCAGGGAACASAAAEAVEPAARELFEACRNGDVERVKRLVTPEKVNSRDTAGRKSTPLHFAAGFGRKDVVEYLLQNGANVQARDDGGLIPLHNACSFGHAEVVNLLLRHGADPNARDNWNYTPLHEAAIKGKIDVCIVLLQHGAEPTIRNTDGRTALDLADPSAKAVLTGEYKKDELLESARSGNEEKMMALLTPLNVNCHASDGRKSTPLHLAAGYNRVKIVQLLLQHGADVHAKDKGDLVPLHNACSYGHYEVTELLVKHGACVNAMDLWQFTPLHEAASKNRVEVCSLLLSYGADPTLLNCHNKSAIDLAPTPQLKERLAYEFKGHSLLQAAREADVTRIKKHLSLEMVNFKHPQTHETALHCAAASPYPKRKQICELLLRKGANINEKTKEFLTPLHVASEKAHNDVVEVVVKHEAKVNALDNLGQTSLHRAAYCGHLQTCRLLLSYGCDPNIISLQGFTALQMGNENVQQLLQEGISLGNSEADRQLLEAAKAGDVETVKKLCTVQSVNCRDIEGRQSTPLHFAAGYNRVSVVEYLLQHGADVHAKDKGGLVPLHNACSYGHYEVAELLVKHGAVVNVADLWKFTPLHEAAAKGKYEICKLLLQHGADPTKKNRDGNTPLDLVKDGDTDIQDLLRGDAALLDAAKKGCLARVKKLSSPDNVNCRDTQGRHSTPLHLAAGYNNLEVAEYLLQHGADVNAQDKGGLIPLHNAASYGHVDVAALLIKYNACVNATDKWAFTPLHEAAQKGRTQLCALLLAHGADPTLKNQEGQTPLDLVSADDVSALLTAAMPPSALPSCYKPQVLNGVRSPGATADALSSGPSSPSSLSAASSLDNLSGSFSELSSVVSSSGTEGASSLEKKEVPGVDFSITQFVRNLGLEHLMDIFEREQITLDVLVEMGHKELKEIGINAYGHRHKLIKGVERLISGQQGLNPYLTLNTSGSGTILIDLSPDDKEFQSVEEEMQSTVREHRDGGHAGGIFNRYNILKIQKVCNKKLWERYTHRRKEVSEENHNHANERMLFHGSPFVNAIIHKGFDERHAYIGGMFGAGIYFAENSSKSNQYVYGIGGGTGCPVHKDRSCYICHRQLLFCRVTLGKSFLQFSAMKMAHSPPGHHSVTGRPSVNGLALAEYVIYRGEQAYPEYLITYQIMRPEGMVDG

SMILES strings stand for the structures.

The target in one assay is TANK-2 enzyme (Homo sapiens, UniProt Q9H2K2). Put plainly: In vitro Scintillation Proximity Assay (SPA) for TANK-2 inhibitory activity. The procedure:
Compounds of the present invention were tested in an in vitro assay based on SPA technology with Ni Flash plates (96 or 384 well). In principle, the assay relies upon SPA technology for the detection of auto-poly(ADP-ribosyl)ation of TANK-2 protein using [^3H]-nicotinamide adenine dinucleotide ([^3H]-NAD^+) as ADP-ribosyl donor.
A stock solution of 100 nM [3H]-NAD^+/NAD (0.1 mCi/ml, supplier: Perkin Elmer) and 0.25 μM NAD (Sigma) was made in assay buffer (60 mM Tris/HCl, pH 7.4; 0.9 mM DTT; 6 mM MgCl2). The TANK-2 enzyme was produced as described in EP1238063. 60 μl of assay buffer, together with 1 μl of compound in DMSO, 20 μl of [^3H]-NAD^+/NAD and 20 μl of TANK-2 enzyme (final concentration 8 μg/ml) was added per well into a 96-well Ni-coated flash plate (Perkin Elmer). After incubation of the mixture for 120 min. at room temperature, the reaction was terminated by adding 60 μl of stopsolution (42.6 mg NAD in 6 ml H2O). The plates were covered with a plate sealer and placed in a TopCountNXT™ (Packard) for scintillation counting. Values were expressed as counts per minute (cpm). For each experiment, controls (containing TANK-2 enzyme and DMSO without compound), a blank incubation (containing DMSO but no TANK-2 enzyme or compound) and samples (containing TANK-2 enzyme and compound dissolved in DMSO) were run in parallel. All compounds tested were dissolved and eventually further diluted in DMSO. In first instance, compounds were tested at a concentration of 10^−5M. […] In each test, the blank value was subtracted from both the control and the sample values. The control sample represented maximal TANK-2 enzyme activity. For each sample, the amount of cpm was expressed as a percentage of the mean cpm value of the controls. When appropriate, IC50-values (concentration of the drug, needed to reduce the TANK-2 enzyme activity to 50% of the control) were computed using linear interpolation between the experimental points just above and below the 50% level. Herein the effects of test compounds are expressed as pIC50 (the negative log value of the IC50-value). […]

The test system of another assay is PC-3 cells. Kind of assay: Antiproliferative activity, Alamar Blue assay, PC-3 cells. The procedure: Human prostate cancer PC-3 cells obtained from the ATCC were cultured in HAM′S F12 medium supplemented with 1 mM Sodium Pyruvate, 1.5 g/L Sodium Bicarbonate, 50 μg/ml gentamicin, non-essential amino acids and 10% fetal calf serum.
(§1) Resazurin was purchased from Aldrich (Prod. No. 199303). Potassium ferrocyanide, potassium ferricyanide, KH2PO4 and K2HPO4 were purchased from Sigma (Prod. Nos. P9387, P8131, P5655 and P8281, respectively).
(§2) Potassium Phosphate Buffer 0.1 M (PPB) was made as follows: 2.72 gram KH2PO4 and 13.86 gram K2HPO4 were dissolved in 500 ml milli-Q H2O, the pH was adjusted to pH 7.4 and the volume was brought to 1 litre with milli-Q H2O; the buffer was filter sterilised and stored at room temperature. Resazurin stock solution (PPB-A) was prepared fresh by dissolving 45 mg resazurin in 15 ml PBS. 30 mM potassium ferricyanide (PPB-B) was prepared by dissolving 0.987 gram potassium ferricyanide in 100 ml PPB. 30 mM potassium ferrocyanide (PPB-C) was prepared by dissolving 1.266 gram potassium ferrocyanide in 100 ml PPB.
(§3) Mixture of PPB-A, PPB-B and PPB-C was prepared by mixing equal volumes of the respective solutions. Resazurin work solution (herein termed “Alamar Blue” solution) was prepared by diluting said mixture 20×(vol/vol) in PPB and filter sterilising; the Alamar Blue solution could be kept at 4° C. for a maximum of 2 weeks.
(§4) For experiments in 384 wells plates the cells were seeded at a density of 4.5×10^3 cells/ml in Falcon 384-well culture plates (Life Technologies, Merelbeke, Belgium), black with clear bottom, in 45 μl culture medium. Cells were allowed to adhere to plastic for 24 hr. […] The fluorescence intensity was measured for each well on a Fluorescence plate reader (Fluorskan, Labsystems, 540 nm excitation and 590 nm emission)
(§5) The antiproliferative activity was calculated as percentage of remaining viable cells in treated versus control (untreated cells) conditions. […] Herein the effects of test compounds are expressed as pIC50 (the negative log value of the IC50-value) (see Table 2).
For orientation: The colour change of resazurin is a common sign of viable cells or microbes.

For the next assay, the system named is HCT116 cells. Put plainly: Antiproliferative activity, Alamar Blue assay, HCT116 cells. Further details: key: pIC50 = -log IC50 (IC50: conc. reducing growth to 50% of control). The procedure:
Human colon carcinoma HCT116 cells obtained from the ATCC were cultured in McCoy's 5 A medium supplemented with 2 mM L-Glutamine, 50 μg/ml gentamicin and 10% heat inactivated fetal calf serum.
as §1, §2, §3, §4, §5

`CCc1cc2ccc(C(C)(C#N)Cc3cccc([N+](=O)[O-])c3)cc2[nH]c1=O` (stereo not drawn): on TANK-2 enzyme, the “in vitro SPA assay TANK-2 pIC50” value stood at 6.8. Besides, the “PC3 antiproliferative activity pIC50” value in the assay on PC-3 cells is 6.7. Further, in the assay with HCT116 cells, the “HCT116 antiproliferative activity pIC50” value came out at 6.8.
As to `CCc1cc2ccc(C(C)(C#N)C3CCc4c(Cl)ccnc43)cc2[nH]c1=O` (single isomer, unassigned) [247], the “in vitro SPA assay TANK-2 pIC50” value at TANK-2 enzyme was 5.6. Also, in the assay with PC-3 cells, the “PC3 antiproliferative activity pIC50” value was 6.6. In the assay on HCT116 cells, the “HCT116 antiproliferative activity pIC50” value stood at 6.7.
In the case of `CCc1cc2ccc(C(C)(C#N)C3CCc4c(Cl)ccnc43)cc2[nH]c1=O` (single isomer, unassigned) [246], the “in vitro SPA assay TANK-2 pIC50” value at TANK-2 enzyme turned out to be 6.2. Moreover, the “PC3 antiproliferative activity pIC50” value with PC-3 cells stood at 7.0. Moreover, the “HCT116 antiproliferative activity pIC50” value in the assay on HCT116 cells is given as 7.2.
